Results from US10894817B2, “Fatty acid modified urocortin-2 analogs for the treatment of diabetes and chronic kidney disease” (priority 2016, dated 2021).

How the values were obtained:
[1] = target: T1, human CRHR1 (Homo sapiens, UniProt P34998); assay: human CRHR1 cell-based cAMP assay (Y79 cells); details: Y79 cells with endogenous human CRHR1, mean ± SEM of runs, read-out: hCRHR1 Average EC50
T1 construct: which expresses endogenous human CRHR1; host or cells: Y79 human retinoblastoma cells
T1 sequence (P34998 24-415): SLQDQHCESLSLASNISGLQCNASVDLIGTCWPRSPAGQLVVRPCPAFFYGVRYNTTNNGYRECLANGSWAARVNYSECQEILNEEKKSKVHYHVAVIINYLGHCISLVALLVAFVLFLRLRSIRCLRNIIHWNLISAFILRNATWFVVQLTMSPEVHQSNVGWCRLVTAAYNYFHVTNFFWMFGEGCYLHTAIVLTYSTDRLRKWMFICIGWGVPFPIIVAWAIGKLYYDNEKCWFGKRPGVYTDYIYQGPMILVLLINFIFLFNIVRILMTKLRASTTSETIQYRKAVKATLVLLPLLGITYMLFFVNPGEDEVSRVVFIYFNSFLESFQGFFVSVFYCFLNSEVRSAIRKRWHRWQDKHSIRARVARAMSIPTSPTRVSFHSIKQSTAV
Method: CRHR agonistic activity is measured in a cell-based cAMP assay. Serial dilutions of the test peptides are made in assay buffer containing Hank's Balanced Salt Solution (HBSS, without phenol red) supplemented with 20 mM HEPES and 0.05% lactalbumin enzymatic hydrolysate (LAH) (“assay buffer”). The highest concentration that is used starts from 1 μM in the human CRHR2b, whereas 100 μM starting concentration is used in the human CRHR1 assay. A one to three dilution of the test peptides is used in both assays.
The human Retinoblastoma cell line Y79 (ATCC #HTB-18), which expresses endogenous human CRHR1, is used in the human CRHR1 assay. […]
The cells are dispensed into Costar 96-well black polystyrene half area EIA/RIA plates (Corning Incorporated, Corning, N.Y.) followed by the addition of the diluted peptides, each at a volume of 20 μL. The agonist induced cAMP levels are detected using a HTRF cAMP Dynamic 2 kit (CisBio, Bedford, Mass.). […] HTRF detection is performed on an Envision plate reader (Perkin Elmer Life and Analytical Sciences, Waltham, Mass.) by measuring ratiometric emission at 620 and 665 nm after excitation at 320 nm.
The data are converted to picomoles of cAMP using a standard curve obtained from the same assay performed with varying concentrations of unlabeled cAMP. […] The data are analyzed using a Curve Fitting Tool to calculate ED50. […]

[2] = target: T2, human CRHR2b (Homo sapiens, UniProt Q13324); assay: human CRHR2b cell-based cAMP assay; details: CHO cells transfected with human CRHR2b, mean ± SEM of runs, read-out: hCRHR2b Average EC50
T2 construct: expressed in transfected cells; host or cells: Chinese Hamster Ovary (CHO) cells, transient transfection
T2 sequence (Q13324 1-438 isoform Q13324-2): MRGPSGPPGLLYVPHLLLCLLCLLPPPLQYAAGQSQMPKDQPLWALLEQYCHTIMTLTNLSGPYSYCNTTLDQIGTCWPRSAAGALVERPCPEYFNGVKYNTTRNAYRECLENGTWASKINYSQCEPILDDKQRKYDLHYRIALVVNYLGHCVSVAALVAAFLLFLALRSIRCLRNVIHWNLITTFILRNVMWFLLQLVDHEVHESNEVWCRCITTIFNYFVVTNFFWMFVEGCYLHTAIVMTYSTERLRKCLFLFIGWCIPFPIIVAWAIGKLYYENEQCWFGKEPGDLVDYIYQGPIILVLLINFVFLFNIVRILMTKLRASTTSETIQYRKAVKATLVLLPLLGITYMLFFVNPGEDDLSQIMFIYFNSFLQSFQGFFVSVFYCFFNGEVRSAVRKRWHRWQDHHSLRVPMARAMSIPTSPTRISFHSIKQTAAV
Method: CRHR agonistic activity is measured in a cell-based cAMP assay. Serial dilutions of the test peptides are made in assay buffer containing Hank's Balanced Salt Solution (HBSS, without phenol red) supplemented with 20 mM HEPES and 0.05% lactalbumin enzymatic hydrolysate (LAH) (“assay buffer”). […] A one to three dilution of the test peptides is used in both assays. Receptor over-expressing Chinese Hamster Ovary (CHO) cell line is used for the human CRHR2b assay. […] AF011406.1). Forty-eight hours after the transfection, the cells are centrifuged to remove the culture media and resuspended in fetal bovine serum containing 5% DMSO. They are cryofrozen and stored in vials in liquid nitrogen (20×10^6 cells/ml/vial). On the day of the assay, cells are thawed and resuspended in cold 30 ml culture media supplemented with 20 mM HEPES. The cells are then centrifuged to remove the media and washed once with HBSS supplemented with 20 mM HEPES. Finally, following the last centrifugation, the cells are resuspended in assay buffer. […] The agonist induced cAMP levels are detected using a HTRF cAMP Dynamic 2 kit (CisBio, Bedford, Mass.). […] HTRF detection is performed on an Envision plate reader (Perkin Elmer Life and Analytical Sciences, Waltham, Mass.) by measuring ratiometric emission at 620 and 665 nm after excitation at 320 nm. […] The data are analyzed using a Curve Fitting Tool to calculate ED50. […]

EC50 [1]: > 100000 nM | EC50 [2]: 0.19 ± 0.12 nM
Compound: CC[C@H](C)[C@H](N)C(=O)N[C@H](C(=O)N[C@@H](CC(C)C)C(=O)N[C@@H](CO)C(=O)N[C@@H](CC(C)C)C(=O)N[C@@H](CC(=O)O)C(=O)N[C@H](C(=O)N1CCC[C@H]1C(=O)N[C@H](C(=O)NCC(=O)N[C@@H](CC(C)C)C(=O)N[C@@H](CC(C)C)C(=O)N[C@@H](CCC(N)=O)C(=O)N[C@H](C(=O)N[C@@H](CC(C)C)C(=O)N[C@@H](CC(C)C)C(=O)N[C@@H](CCC(=O)O)C(=O)N[C@@H](CCC(N)=O)C(=O)N[C@@H](C)C(=O)N[C@@H](CCCNC(=N)N)C(=O)N[C@@H](C)C(=O)N[C@@H](CCCNC(=N)N)C(=O)N[C@@H](C)C(=O)N[C@@H](C)C(=O)N[C@@H](CCCNC(=N)N)C(=O)N[C@@H](CCC(=O)O)C(=O)N[C@@H](CCC(N)=O)C(=O)N[C@@H](C)C(=O)N[C@H](C(=O)N[C@H](C(=O)N[C@@H](CC(N)=O)C(=O)N[C@@H](C)C(=O)N[C@@H](CCCNC(=N)N)C(=O)N[C@H](C(=O)N[C@@H](CC(C)C)C(=O)N[C@@H](C)C(=O)N[C@@H](CCCNC(=N)N)C(=O)N[C@H](C(N)=O)C(C)C)[C@@H](C)CC)[C@@H](C)O)[C@@H](C)O)[C@@H](C)CC)[C@@H](C)CC)C(C)C)C(C)C [hUCN2, reference compound]
